Data: patent US20040106198A1, “Inhibition of peptide cleavage in plants” (LARGE SCALE BIOLOGY CORPORATION, priority 2002, published 2004)

Biological target: Nicotianalisin (Nicotiana benthamiana subtilisin-like serine protease) (Nicotiana benthamiana)
Experiment: cell-based or functional assay

## Aprotinin (from UniProt P00974 36-93)
  % Inhibition of protease activity in IF (hydrolysis of 0.3 mM N-Suc-AAPL-p-NA after 30 min with inhibitor at 24 C): 46%
